The test system of assay [1] is human hepatoma MHCC97H cell line. In words: Anti-tumor effect in MHCC97H xenograft model. The note with it: 25th day after dosing. Format: in vivo, BALB/c nude mice. As for the experimental part:
BALB/c nude mice were subcutaneously inoculated with MHCC97H cells to develop human hepatocellular carcinoma subcutaneously transplanted tumor model. The experiment was divided into groups including crystal form A of SPH1772 ditartrate (0.05 mg/kg, 0.5 mg/kg and 5 mg/kg), positive control INC280 hydrochloride (5 mg/kg), and Vehicle control group, 10 mice in each group, intragastric administration once a day, lasting 21 days. The efficacy was according to the relative tumor inhibition rate (TGI) and tumor growth delay time, the safety was evaluated according to animal weight and death.
BALB/c nude mice, female, 7 to 9 weeks old (the age when mice were inoculated with tumor cells), weight 19.5 to 23.9 g, 75 animals. BALB/c nude mice were purchased from Shanghai Lingchang Biotechnology Co., Ltd., animal certificate number: 2013001816956. Rearing environment: SPF level.
MHCC97H (Zhongshan Hospital subsidiary to Fudan University) was cultured in DMEM containing 10% fetal bovine serum. MHCC97H cells were collected during exponential growth phase, the cells in PBS was re-suspended to a suitable concentration for subcutaneous tumor inoculation in mice. […]
All experimental results were expressed as mean tumor volume±SEM (mean standard error). […] All data was analyzed by SPSS 18.0. p<0.05 was considered having significant differences.

Assay [2] relates to H1993 human lung cancer cell. Kind of assay: Inhibition of proliferation of human lung cancer H1993 cells (CCK-8). Format: cell-based. The conditions noted are these: NCI-H1993, 72 h, CCK-8, 72 hours incubation, read-out: IC50, proliferation of H1993 cell line. The text has this:
In the present embodiment, the Cell Counting Kit-8 (CCK-8) reagent was used to screen the compound SPH1772 and the salt thereof for inhibiting tumor cell proliferation against human lung cancer H1993 cell line, which was used to evaluate the in vitro inhibitory activity of the test compounds on this cell line.
CCK-8 is a kit for detecting cell proliferation, cell survival and cytotoxicity and an alternative method for the MTT method.
All samples were formulated to a 10^−2 M stock solution with DMSO and stored in small quantities at −80° C. for use.
1, Cell culture and inoculation: on the first day of the experiment, took normal cultured cells, when cells were in the exponential growth phase, the cells were dispersed by digesting and then inoculated in a 96-well cell culture plate at a density of 5.5×10^4 cells/mL (representing 55000 cells per mL), 90 μL per well; after completion of inoculation, the microplate was placed at 37° C. under 5% CO2 condition overnight. […]
3, Data acquisition: the compound and cells were incubated for 72 hours, the microplate containing the cells was taken out from incubator, 10 μL Cell Counting Kit-8 reaction solution was added to each well, and the microplate was placed in an incubator for 2-3 hours. The absorbance values were measured at 450 nm on the Flexstation 3 and set 650 nm as the reference wavelength. […]

Take `CNC(=O)c1ccc(-c2cnc3ncc(Cc4ccc5ncccc5c4)n3n2)cc1F` [INC280]: in assay [1] (5 mg/kg intragastric once a day), the “relative tumor volume (x ± S)” value came to 1.05 ± 0.09. In addition, the “TGI (relative tumor inhibition rate)” value in assay [1] (5 mg/kg, from relative tumor volume) is reported as 91%.

`CNC(=O)c1ccc(-c2cnc3ncc(Cc4ccc5ncccc5c4)n3n2)cc1F` [INCB28060, Capmatinib]: the IC50 in assay [2] was determined as 2.1 nM.

The record behind these values is patent US10344035B2, “Salt of quinolone compound, polymorphs thereof, preparation method therefor, composition, and applications” (SHANGHAI PHARMACEUTICALS HOLDING CO., LTD., priority 2015, dated 2019).
